Measured values published in ChEMBL document CHEMBL1145840, “Identification of (3R)-7-hydroxy-N-((1S)-1-[[(3R,4R)-4-(3-hydroxyphenyl)- 3,4-dimethyl-1-piperidinyl]methyl]-2-methylpropyl)-1,2,3,4-tetrahydro- 3-isoquinolinecarboxamide as a novel potent and selective opioid kappa receptor antagonist” (J Med Chem, 2003).

Protein sequences, listed by entry. Tags and fused reporters are not part of them.
UniProt P41143, whole entry: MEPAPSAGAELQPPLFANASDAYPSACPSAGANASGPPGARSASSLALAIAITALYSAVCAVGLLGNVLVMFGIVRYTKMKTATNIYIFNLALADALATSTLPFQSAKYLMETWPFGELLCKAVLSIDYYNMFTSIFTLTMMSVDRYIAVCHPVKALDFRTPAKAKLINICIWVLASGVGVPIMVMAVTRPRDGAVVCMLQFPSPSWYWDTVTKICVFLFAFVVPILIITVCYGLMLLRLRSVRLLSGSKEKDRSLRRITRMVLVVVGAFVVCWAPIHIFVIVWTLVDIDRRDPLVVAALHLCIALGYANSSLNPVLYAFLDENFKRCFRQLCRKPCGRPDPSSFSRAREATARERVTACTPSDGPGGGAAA
UniProt P35372, whole entry: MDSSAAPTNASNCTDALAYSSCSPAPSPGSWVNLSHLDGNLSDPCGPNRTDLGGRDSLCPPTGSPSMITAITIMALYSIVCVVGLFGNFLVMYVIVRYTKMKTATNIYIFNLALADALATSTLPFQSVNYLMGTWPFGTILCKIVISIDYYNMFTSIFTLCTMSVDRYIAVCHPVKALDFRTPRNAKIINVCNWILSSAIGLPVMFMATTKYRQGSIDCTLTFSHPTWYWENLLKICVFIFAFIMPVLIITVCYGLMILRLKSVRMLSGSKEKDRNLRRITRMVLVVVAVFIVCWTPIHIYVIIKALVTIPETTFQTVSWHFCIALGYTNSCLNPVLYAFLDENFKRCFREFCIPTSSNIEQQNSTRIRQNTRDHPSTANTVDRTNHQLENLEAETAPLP

Legend:
[1] = target: Delta-type opioid receptor (Homo sapiens, UniProt P41143); experiment: Binding affinity towards human cloned Opioid receptor delta 1 using [3H]Cl-DPDPE
[2] = target: Mu-type opioid receptor (Homo sapiens, UniProt P35372); experiment: Binding affinity towards human cloned Opioid receptor mu 1 using [3H]DAMGO

Work on `CC(C)[C@@H](CN1CC[C@@](C)(c2cccc(O)c2)[C@@H](C)C1)NC(=O)[C@H]1Cc2ccc(O)cc2CN1` [JDTIC] yielded a Ki [1] of 29.6 nM and a Ki [2] of 0.96 nM.
